1 compound from patent publication US20260137691A1 (priority 2024, published 2026) can be followed below.

Sequences of proteins named here, by UniProt entry; tags and fusion partners are left off.
UniProt P21452, whole entry: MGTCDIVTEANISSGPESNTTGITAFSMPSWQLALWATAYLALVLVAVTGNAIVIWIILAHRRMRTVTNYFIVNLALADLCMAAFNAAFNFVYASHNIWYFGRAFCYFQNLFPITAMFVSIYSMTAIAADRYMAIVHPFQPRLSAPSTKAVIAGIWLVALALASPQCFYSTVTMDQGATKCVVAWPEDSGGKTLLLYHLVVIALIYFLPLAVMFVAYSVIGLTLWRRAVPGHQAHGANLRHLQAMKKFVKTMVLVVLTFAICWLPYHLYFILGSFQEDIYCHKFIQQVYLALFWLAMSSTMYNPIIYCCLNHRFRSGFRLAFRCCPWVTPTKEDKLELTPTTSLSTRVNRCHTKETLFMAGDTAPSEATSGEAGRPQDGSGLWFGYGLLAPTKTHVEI

The target of this test is T1, NK2 (h) (Homo sapiens, UniProt P21452).
T1 construct: Eurofins (contract assay)
Nature of the test: NK2 (h) (agonist radioligand). The class given is binding.

With `CCCC[C@H](NC(=O)[C@H](CC(C)C)NC(=O)CNC(=O)[C@@H](NC(=O)[C@H](Cc1ccccc1)NC(=O)[C@H](CO)NC(=O)[C@@H](N)CC(=O)O)C(C)C)C(N)=O` [[Nleu10]-NKA (4-10)], the IC50 (as a rule, the concentration needed to halve the response being measured) is 3.5 nM.
